Measurements: patent US20240209092A1, “COMBINATION THERAPIES FOR TREATING CANCER” (ADAGENE INC., priority 2021, published 2024)

Tests used:
[1] = tested on: human CTLA4; assay: ELISA binding to recombinant human CTLA4; conditions: masked antibody
[2] = tested on: monkey CTLA4; assay: ELISA binding to recombinant cynomolgus monkey CTLA4; conditions: masked antibody
[3] = target: T1, mouse CTLA4 (Mus musculus, UniProt P09793); assay: ELISA binding to recombinant mouse CTLA4; conditions: masked antibody
T1 construct: recombinant CTLA4 proteins (extracellular domain) of human, cynomolgus monkey, mouse or rat origin

[4] = target: T2, rat CTLA4 (Rattus norvegicus, UniProt Q62859); assay: ELISA binding to recombinant rat CTLA4; conditions: masked antibody
T2 construct: recombinant CTLA4 proteins (extracellular domain) of human, cynomolgus monkey, mouse or rat origin
T2 sequence (Q62859 36-161): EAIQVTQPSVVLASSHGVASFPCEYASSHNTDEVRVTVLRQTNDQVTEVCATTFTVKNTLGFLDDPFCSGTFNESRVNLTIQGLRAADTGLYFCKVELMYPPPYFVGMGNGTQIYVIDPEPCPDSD

[5] = tested on: human CTLA4; assay: Promega cell-based CTLA4 blockade bioassay (CD28 signaling activation); conditions: Jurkat CTLA4 effector cells co-cultured with aAPC/Raji cells
[6] = tested on: 293F overexpressing human CTLA4; assay: ADCC reporter gene assay; format: cell-based; conditions: 293F-CTLA4 target cells, Jurkat-NFAT-CD16 effector cells
[7] = tested on: H22 murine liver cancer cells; assay: H22 murine liver cancer model, monotherapy; format: in vivo, BALB/c mice; conditions: 5 mg/kg i.p. twice a week, six doses; mono therapy
[8] = tested on: CT26 murine colon cancer cells; assay: CT26 murine colon cancer model, monotherapy; format: in vivo, BALB/c mice; conditions: 5 mg/kg i.p. twice a week, six doses; mono therapy
[9] = tested on: Treg cells; assay: Treg depletion in CT26 murine colon cancer model; format: in vivo, BALB/c mice
[10] = tested on: Lewis murine lung tumor cells; assay: Lewis lung cancer model, combination with anti-PD-1; format: in vivo, mice; conditions: 14 days after start of dosing; TY21580 or TY22404 2 mg/kg, FC1225 10 mg/kg, i.p. biweekly, four doses
[11] = tested on: 4T1 murine breast cancer cells; assay: 4T1 cancer model, TY22404 with ADG106; format: in vivo, mice; conditions: Day 33; 5 mg/kg TY22404 and/or ADG106 i.p. biweekly, four doses
[12] = tested on: MC38 murine colon tumor cells; assay: MC38 cancer model, TY22404 with ADG106; format: in vivo, mice; conditions: Day 27 post tumor cell inoculation; 5 mg/kg each, i.p. biweekly four doses
[13] = Single dose pharmacokinetics in mice; format: in vivo; conditions: single dose 10 mg/kg
[14] = Single dose pharmacokinetics in cynomolgus monkeys; format: in vivo; conditions: single dose 10 mg/kg
[15] = Toxicology in nonobese diabetic (NOD) mouse model; format: in vivo; conditions: six treatments at 50 mg/kg
[16] = 4-week GLP repeat-dose toxicology study in cynomolgus monkeys; format: in vivo
[17] = Phase 1 dose escalation study, safety; format: in vivo, human
[18] = tested on: advanced solid tumors; assay: Phase 1 dose escalation study, tumor response case studies; format: in vivo, human
[19] = Phase 1 biomarker analysis, serum cytokines (MSD V-Plex); format: in vivo, human
[20] = Phase 1 biomarker analysis, peripheral immune cell profiling (TBNK FACS panel); format: in vivo, human; conditions: some patients
[21] = tested on: Treg cells; assay: Dose dependent Treg depletion in CT26 murine colon cancer model; format: in vivo, BALB/c mice
[22] = mouse, in vivo
[23] = 5 mg/kg i.p. Day 9 and Day 12, analysis Day 14
[24] = ovarian cancer patient, 1 mpk, assessment after every two cycles

B1: TY22404: activatable anti-CTLA4 fully human IgG1 antibody prodrug (SAFEbody); heavy chain SEQ ID NO:320, masked light chain SEQ ID NO:322 (antibody)
heavy: EVQLVESGGGLVQPGGSLRLSCAASGYSISSGYHWSWIRQAPGKGLEWLARIDWDDDKYYSTSLKSRLTISRDNSKNTLYLQLNSLRAEDTAVYYCARSYVYFDYWGQGTLVTVSSASTKGPSVFPLAPSSKSTSGGTAALGCLVKDYFPEPVTVSWNSGALTSGVHTFPAVLQSSGLYSLSSVVTVPSSSLGTQTYICNVNHKPSNTKVDKKV[gap - human IgG1 Fc]
light: EVGSYPNPSSDCVPYYYACAYSGRSAGGGGTPLGLAGSGGSDIQLTQSPSSLSASVGDRVTITCRASQSVRGRFLAWYQQKPGKAPKLLIYDASNRATGIPSRFSGSGSGTDFTLTISSLQPEDFATYYCQQSSSWPPTFGQGTKVEIKRTVAAPSVFIFPPSDEQLKSGTASVVCLLNNFYPREAKVQWKVDNALQSGNSQESVTEQDSKDSTYSLSSTLTLSKADYEKHKVYACEVTHQGLSSPVTKSFNRGEC
- binding to recombinant CTLA4 protein, in words [1]: quite low affinities
- binding to recombinant CTLA4 protein, in words [2]: quite low affinities
- binding to recombinant CTLA4 protein, in words [3]: quite low affinities
- binding to recombinant CTLA4 protein, in words [4]: quite low affinities
- CTLA4 blockade mediated reporter (luminescent) signaling [5]: can't induce the downstream luminescent cell signaling
- ADCC reporter gene activity [6]: no ADCC reporter gene activity
- anti-tumor efficacy (tumor volume) [7]: very strong anti-tumor efficacy
- anti-tumor efficacy (tumor volume) [8]: very strong anti-tumor efficacy
- CTLA4 expression levels on Treg cells in TILs ([9]; 5 mg/kg i.p.): significantly decreased
- CTLA4 expression levels on peripheral Treg cells (PBMC) ([9]; 5 mg/kg i.p.): slightly upregulated
- CTLA4 expression levels on peripheral Treg cells (spleen) ([9]; 5 mg/kg i.p.): not changed
- percentage of Tregs in CD4+ T cells in TILs vs isotype Ctrl [9, 23]: significantly reduced
- percentage of Tregs in CD4+ T cells in peripheral lymphocytes in blood and spleen [9, 23]: did not influence
- Tumor growth inhibition (TGI) relative to isotype control [10]: 18%
- TGI vs vehicle control [11]: 49%
- Tumor growth inhibition (TGI) relative to isotype control [12]: 77%
- half-life compared with TY21580 [13]: extended half-life
- systemic exposure compared with TY21580 [13]: higher systemic exposure
- half-life compared with TY21580 [14]: extended half-life
- systemic exposure compared with TY21580 [14]: higher systemic exposure
- abnormal findings attributable to TY22404 [15]: No abnormal findings
- survival [15]: all mice survived
- adverse, but reversible, microscopic findings ([16]; 200 mg/kg, both sexes, multiple organs and tissues): minimal to moderate mixed perivascular infiltrates
- highest non-severely toxic dose (HNSTD) ([16]; cynomolgus monkeys): 200 mg/kg/dose
- tolerability ([16]; intravenous infusion 5, 30 and 200 mg/kg/dose once weekly for five doses, 28-day recovery): well tolerated
- tolerability ([17]; 16 patients, 0.1, 0.3, 1, 3 and 10 mg/kg, as of Nov. 30, 2021): well tolerated
- number of treatment-related ≥Grade 3 AE (Grade 3 fatigue) ([17]; 16 patients, 5 dose escalation cohorts): 1
- dose limiting toxicity (DLT) ([17]; up to 10 mg/kg Q3W): No DLT
- tumor shrinkage ([18]; UV melanoma patient who failed ipilimumab plus nivolumab, after two cycles): −24%
- change of CA125, first value ([18]; ovarian cancer patient, 1 mpk): −18%
- change of CA125, second value ([18]; ovarian cancer patient, 1 mpk): −67%
- change of CA125, third value ([18]; ovarian cancer patient, 1 mpk): −77%
- change of targeted tumor lesions, first value [18, 24]: −13%
- change of targeted tumor lesions, second value [18, 24]: −19%
- change of targeted tumor lesions, third value [18, 24]: −22%
- TNF-α abundance in serum relative to base level ([19]; patient 6105-004, 1 mg/kg, during treatment): dramatic increase
- abundance of IFN-γ in serum relative to base level ([19]; patient 6105-005, 3 mg/kg, C1D8 to C2D1): increased significantly
- levels of IFN-γ and/or TNF-α overall ([19]; some patients): transient increased levels
- absolute counts of CD4+, CD8+ T and NK cells relative to base level [20]: transient increased
- CTLA-4 expression levels on peripheral (spleen) Treg cells ([21]; 5, 1 and 0.2 mg/kg i.p.): not changed
- percentage of Tregs in CD4 T cells in spleen ([21]; 5, 1 and 0.2 mg/kg i.p.): did not reduce
- percentage of Tregs in CD4+ T cells in TILs vs isotype Ctrl ([21]; 5, 1 and 0.2 mg/kg i.p. Day 9 and Day 12, analysis Day 14, dose dependent): significantly reduced
- CTLA-4 expression levels on Treg cells in TILs ([21]; 5, 1 and 0.2 mg/kg i.p., dose dependent): significantly decreased
- mice with cleaved form detected in tumor [22]: 2/3
